## Experimental vapor pressure values from OPERA 2.9

Data: OPERA 2.9 data sets, kmansouri/OPERA on GitHub.

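OPERA's authors assembled the values from existing databases and did not measure them anew. The files give a single number for a compound and property, which may rest on several reports. How each value was measured is not recorded, so precision varies. Where a salt, mixture or single isomer is drawn, the source does not say that exactly this form was tested. Unmarked limits or estimates from the upstream databases cannot be ruled out.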

Vapor pressure is log10 of mmHg; the set covers 15 to 30 °C, mostly 20 to 25 °C.
"via" names the databases from which the curators took the value.

* FC(F)C(F)(F)COC(F)(F)C(F)F [(2H-Perfluoroethyl)(1H,1H,3H-perfluoropropyl)ether]: log vapor pressure 1.616 (log10 mmHg) (via ICF)
* Clc1cccc(-c2ccccc2)c1Cl [2,3-Dichlorobiphenyl]: log vapor pressure -2.914 (log10 mmHg) (via OCHEM)
* CCC(C)c1cc([N+](=O)[O-])cc([N+](=O)[O-])c1O (stereo not given) [Dinoseb]: log vapor pressure -4.297 (log10 mmHg) (via OCHEM, PubChem, eChemPortal)
* Oc1c(O)c(Cl)c(Cl)c(Cl)c1Cl: log vapor pressure -3.295 (log10 mmHg) (via OCHEM)
* CC(C)(C)c1cc(C(C)(C)C)c2op(OCCN(CCOp3oc4c(C(C)(C)C)cc(C(C)(C)C)cc4c4cc(C(C)(C)C)cc(C(C)(C)C)c4o3)CCOp3oc4c(C(C)(C)C)cc(C(C)(C)C)cc4c4cc(C(C)(C)C)cc(C(C)(C)C)c4o3)oc3c(C(C)(C)C)cc(C(C)(C)C)cc3c2c1: log vapor pressure -12.82 (log10 mmHg) (via eChemPortal)
* O=S(=O)([O-])CCBr.[Na+] [Ethanesulfonic acid, 2-bromo-, sodium salt]: log vapor pressure -11.99 (log10 mmHg) (via eChemPortal)
* CC(=O)O[C@H]1CC[C@@]2(C)C(=CC[C@@H]3[C@@H]2CC[C@]2(C)C(=O)CC[C@@H]32)C1 [Dehydroepiandrosterone 3-acetate]: log vapor pressure -8.287 (log10 mmHg) (via eChemPortal)
* CCNc1nc(O)nc(NC(C)C)n1 [2-Hydroxyatrazine]: log vapor pressure -5.072 (log10 mmHg) (via OCHEM)
* CSC(=O)c1c(C(F)F)nc(C(F)(F)F)c(C(=O)SC)c1CC(C)C [Dithiopyr]: log vapor pressure -5.398 (log10 mmHg) (via PubChem)
* CCOCN(C(=O)CCl)c1c(C)cccc1CC [Acetochlor]: log vapor pressure -6.783 (log10 mmHg) (via OCHEM)
* Clc1cc(Cl)c(Cl)c(-c2c(Cl)c(Cl)c(Cl)c(Cl)c2Cl)c1 [2,2',3,3',4,5,5',6-Octachlorobiphenyl]: log vapor pressure -5.955 (log10 mmHg) (via OCHEM)
* CN[C@@H](C)[C@@H](O)c1ccccc1 [Pseudoephedrine]: log vapor pressure -3.77 (log10 mmHg) (via eChemPortal)
* FC(F)C(F)(F)OCC(F)(F)C(F)(F)F [Perfluoroethyl 2H-perfluoroethyl ether]: log vapor pressure 2.074 (log10 mmHg) (via ICF)
* OCCN(CCO)C1CCCCC1 [Ethanol, 2,2'-(cyclohexylimino)bis-]: log vapor pressure -5.104 (log10 mmHg) (via eChemPortal)
* FC(F)COC(F)(F)C(F)(F)F [(2,2-Difluoroethoxy)pentafluoroethane]: log vapor pressure 2.576 (log10 mmHg) (via ICF)
* CC(C)(C)N=C=O [tert-Butyl isocyanate]: log vapor pressure 1.773 (log10 mmHg) (via eChemPortal)
* COC(C(F)(F)F)(C(F)(F)F)C(F)(F)F [Perfluoro-t-butyl methyl ether]: log vapor pressure 2.452 (log10 mmHg) (via ICF)
* S=C=Nc1ccccc1 [Isothiocyanic acid, phenyl ester]: log vapor pressure 0.176 (log10 mmHg) (via OCHEM)
* Clc1cc2c(cc1Cl)Oc1c(ccc(Cl)c1Cl)O2: log vapor pressure -6.485 (log10 mmHg) (via OCHEM)
* CCC(=O)Cl [Propanoyl chloride]: log vapor pressure 1.9 (log10 mmHg) (via eChemPortal)
* Clc1cc2oc3cc(Cl)c(Cl)c(Cl)c3c2c(Cl)c1Cl [1,2,3,7,8,9-Hexachlorodibenzo[b,d]furan]: log vapor pressure -7.425 (log10 mmHg) (via OCHEM)
* C#CC1(O)CCCCC1 [1-Ethynylcyclohexanol]: log vapor pressure -0.523 (log10 mmHg) (via eChemPortal)
* Nc1ccc(-c2ccccc2)cc1 [4-Biphenylamine]: log vapor pressure -3.238 (log10 mmHg) (via PubChem)
* CC1CC(C)(C)CC(OOC(C)(C)C)(OOC(C)(C)C)C1 (stereo not given) [1,1-Bis(tert-butylperoxy)-3,3,5-trimethylcyclohexane]: log vapor pressure -4.171 (log10 mmHg) (via eChemPortal)
* Clc1cccc(-c2c(Cl)ccc(Cl)c2Cl)c1Cl [2,2',3,3',6-Pentachlorobiphenyl]: log vapor pressure -4.315 (log10 mmHg) (via OCHEM)
* O=C(CCl)OC(=O)CCl [2-Chloroacetic anhydride]: log vapor pressure -1.429 (log10 mmHg) (via OCHEM, PubChem)
* CCSC(=O)Cl [S-Ethyl chlorothioformic acid]: log vapor pressure 2.045 (log10 mmHg) (via PubChem)
* O=C(Cl)CCCCCl [Valeryl chloride, 5-chloro-]: log vapor pressure -0.523 (log10 mmHg) (via eChemPortal)
* Clc1cc2oc3c(Cl)c(Cl)c(Cl)c(Cl)c3c2c(Cl)c1Cl [1,2,3,4,7,8,9-Heptachlorodibenzofuran]: log vapor pressure -8.005 (log10 mmHg) (via OCHEM)
* Clc1cc(Cl)c(-c2c(Cl)cc(Cl)c(Cl)c2Cl)c(Cl)c1Cl [2,2',3,3',4,4',6,6'-Octachlorobiphenyl]: log vapor pressure -5.295 (log10 mmHg) (via OCHEM)
* O=[N+]([O-])c1cccc(Cl)c1Cl [2,3-Dichloronitrobenzene]: log vapor pressure -1.824 (log10 mmHg) (via eChemPortal)
* Clc1ccc(-c2c(Cl)c(Cl)c(Cl)c(Cl)c2Cl)c(Cl)c1 [2,2',3,4,4',5,6-Heptachlorobiphenyl]: log vapor pressure -5.315 (log10 mmHg) (via OCHEM)
* CC1CCC(=O)O1 (stereo not given) [4-Pentanolide]: log vapor pressure -0.413 (log10 mmHg) (via OCHEM)
* CCc1cccc(CC)c1N(COC)C(=O)CCl [Alachlor]: log vapor pressure -4.658 (log10 mmHg) (via OCHEM, PubChem)

Excerpt, the final 3 entries:

| structure (SMILES) | name | log vapor pressure (log10 mmHg) | via |
|---|---|---|---|
| Clc1ccc(-c2c(Cl)c(Cl)c(Cl)c(Cl)c2Cl)c(Cl)c1 | 2,2',3,4,4',5,6-Heptachlorobiphenyl | -5.315 | OCHEM |
| CC1CCC(=O)O1 (stereo not given) | 4-Pentanolide | -0.413 | OCHEM |
| CCc1cccc(CC)c1N(COC)C(=O)CCl | Alachlor | -4.658 | OCHEM, PubChem |